The AC50 is the midpoint of the concentration-response curve, whichever way the signal moves.

Chains of the proteins cited; added tags and fusions are not shown.
UniProt P19793, whole entry: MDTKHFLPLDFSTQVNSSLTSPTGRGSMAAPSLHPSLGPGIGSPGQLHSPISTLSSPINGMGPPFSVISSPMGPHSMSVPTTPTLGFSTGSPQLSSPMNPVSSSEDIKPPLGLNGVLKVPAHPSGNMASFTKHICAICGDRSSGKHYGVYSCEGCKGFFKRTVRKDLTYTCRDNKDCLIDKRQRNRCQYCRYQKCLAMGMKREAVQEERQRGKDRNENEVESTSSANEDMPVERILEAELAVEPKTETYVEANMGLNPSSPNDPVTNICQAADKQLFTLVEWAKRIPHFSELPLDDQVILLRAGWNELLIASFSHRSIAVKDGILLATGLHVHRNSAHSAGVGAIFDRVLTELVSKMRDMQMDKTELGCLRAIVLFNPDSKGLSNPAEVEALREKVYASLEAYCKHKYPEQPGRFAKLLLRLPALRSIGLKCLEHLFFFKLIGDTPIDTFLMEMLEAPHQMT
UniProt P28702, whole entry: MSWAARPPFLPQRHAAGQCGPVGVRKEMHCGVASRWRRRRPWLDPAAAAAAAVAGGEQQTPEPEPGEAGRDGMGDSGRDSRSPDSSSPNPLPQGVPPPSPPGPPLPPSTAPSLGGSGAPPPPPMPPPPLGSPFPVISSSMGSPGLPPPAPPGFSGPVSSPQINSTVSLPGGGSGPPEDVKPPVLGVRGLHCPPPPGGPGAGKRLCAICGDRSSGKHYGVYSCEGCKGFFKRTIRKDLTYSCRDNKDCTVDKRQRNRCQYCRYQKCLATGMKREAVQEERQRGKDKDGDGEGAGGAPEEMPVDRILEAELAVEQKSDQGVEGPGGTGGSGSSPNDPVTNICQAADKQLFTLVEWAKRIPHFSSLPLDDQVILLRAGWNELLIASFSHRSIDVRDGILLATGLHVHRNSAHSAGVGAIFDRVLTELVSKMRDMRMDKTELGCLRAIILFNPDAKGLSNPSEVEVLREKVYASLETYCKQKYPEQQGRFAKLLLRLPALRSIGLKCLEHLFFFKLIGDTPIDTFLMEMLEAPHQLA
UniProt P11473, whole entry: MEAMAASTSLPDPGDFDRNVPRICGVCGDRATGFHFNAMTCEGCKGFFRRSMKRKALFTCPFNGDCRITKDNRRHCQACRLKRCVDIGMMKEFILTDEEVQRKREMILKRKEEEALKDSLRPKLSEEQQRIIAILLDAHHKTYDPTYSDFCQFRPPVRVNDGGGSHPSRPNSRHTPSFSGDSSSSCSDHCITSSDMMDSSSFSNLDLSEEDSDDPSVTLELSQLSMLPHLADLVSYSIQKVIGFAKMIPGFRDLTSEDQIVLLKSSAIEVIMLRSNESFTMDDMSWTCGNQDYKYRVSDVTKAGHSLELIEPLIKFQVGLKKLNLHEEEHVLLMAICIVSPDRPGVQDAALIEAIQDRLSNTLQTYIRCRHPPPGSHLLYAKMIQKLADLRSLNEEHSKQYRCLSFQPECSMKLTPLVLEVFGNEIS
UniProt P51449, whole entry: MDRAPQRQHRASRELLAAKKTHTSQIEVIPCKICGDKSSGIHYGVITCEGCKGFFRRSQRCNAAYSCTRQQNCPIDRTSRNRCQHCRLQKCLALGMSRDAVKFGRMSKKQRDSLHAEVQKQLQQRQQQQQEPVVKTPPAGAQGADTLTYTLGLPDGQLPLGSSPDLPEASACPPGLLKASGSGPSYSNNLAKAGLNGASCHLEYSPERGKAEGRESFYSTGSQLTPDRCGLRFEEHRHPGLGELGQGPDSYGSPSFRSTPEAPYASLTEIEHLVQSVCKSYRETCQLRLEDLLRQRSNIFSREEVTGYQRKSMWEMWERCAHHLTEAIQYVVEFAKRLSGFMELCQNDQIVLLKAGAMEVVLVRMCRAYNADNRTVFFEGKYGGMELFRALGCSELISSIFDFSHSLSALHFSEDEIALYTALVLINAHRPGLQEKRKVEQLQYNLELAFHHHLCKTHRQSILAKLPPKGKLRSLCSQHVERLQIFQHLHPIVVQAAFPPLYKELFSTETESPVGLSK
UniProt P10827, whole entry: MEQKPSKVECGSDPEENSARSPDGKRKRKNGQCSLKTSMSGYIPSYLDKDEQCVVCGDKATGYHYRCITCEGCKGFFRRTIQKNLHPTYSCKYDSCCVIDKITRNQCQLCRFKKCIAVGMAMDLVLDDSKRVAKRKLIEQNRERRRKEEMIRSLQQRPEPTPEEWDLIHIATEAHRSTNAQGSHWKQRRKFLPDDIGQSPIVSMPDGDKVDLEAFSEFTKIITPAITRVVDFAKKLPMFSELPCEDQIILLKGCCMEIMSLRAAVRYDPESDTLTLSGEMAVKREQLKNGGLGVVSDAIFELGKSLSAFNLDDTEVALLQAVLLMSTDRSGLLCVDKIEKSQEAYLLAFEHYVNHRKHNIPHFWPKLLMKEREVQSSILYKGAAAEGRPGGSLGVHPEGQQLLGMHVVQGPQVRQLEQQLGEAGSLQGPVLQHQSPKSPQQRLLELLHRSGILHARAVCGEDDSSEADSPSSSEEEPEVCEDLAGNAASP
UniProt P16581, whole entry: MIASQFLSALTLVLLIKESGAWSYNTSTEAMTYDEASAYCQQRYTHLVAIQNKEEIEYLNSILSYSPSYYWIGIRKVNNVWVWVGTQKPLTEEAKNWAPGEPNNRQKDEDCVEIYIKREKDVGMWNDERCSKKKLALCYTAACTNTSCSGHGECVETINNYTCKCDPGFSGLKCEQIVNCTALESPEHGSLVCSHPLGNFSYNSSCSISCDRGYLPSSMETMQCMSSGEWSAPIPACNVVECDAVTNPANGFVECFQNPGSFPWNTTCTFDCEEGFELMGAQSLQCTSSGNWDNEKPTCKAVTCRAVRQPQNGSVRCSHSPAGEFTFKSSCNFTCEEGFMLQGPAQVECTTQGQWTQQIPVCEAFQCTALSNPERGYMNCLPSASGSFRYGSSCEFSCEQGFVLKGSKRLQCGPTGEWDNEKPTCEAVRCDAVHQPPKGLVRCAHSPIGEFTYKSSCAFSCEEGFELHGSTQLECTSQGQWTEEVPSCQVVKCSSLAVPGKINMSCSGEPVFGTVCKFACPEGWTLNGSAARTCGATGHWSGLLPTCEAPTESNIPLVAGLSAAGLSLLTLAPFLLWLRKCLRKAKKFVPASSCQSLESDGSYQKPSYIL

Only a part is listed here, and it is no random draw. Results filed as inconclusive are left out. Calls of active or inactive are those of the source. The calls were made as follows, unless noted: active = hit-call score of the fitted dose curve at least 0.9, where 1 is the maximum; inactive = score below 0.9.

Test [1] addresses Retinoic acid receptor RXR-alpha (Homo sapiens) (UniProt P19793). Description: ATG_RXRa_TRANS: Attagene TRANS-FACTORIAL HepG2 Assay for human Retinoid X Receptor alpha (RXRa) (AID 2283012; active = hit-call score of the fitted dose curve at least 0.9, where 1 is the maximum). The procedure, abridged: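 Chimeric NR-GAL4 trans-activation in HepG2, 24 h treatment; reporter transcripts quantified by fluorescence on capillary electrophoresis, analysed for upward change from DMSO.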

Test [2] addresses human Retinoid X Receptor beta (RXRb), RXRB (gene 6257) (UniProt P28702). Description: ATG_RXRb_TRANS: Attagene TRANS-FACTORIAL HepG2 Assay for human Retinoid X Receptor beta (RXRb) (AID 2283013; active = hit-call score of the fitted dose curve at least 0.9, where 1 is the maximum). A digest of the protocol: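 After a 24 h incubation with test chemical, transfected HepG2 cells carrying NR-Gal4 fusions and GAL4-UAS reporter transcription units yield RNA whose reporter cDNA is FAM-labelled, HpaI-cut and sized by capillary electrophoresis; increases over DMSO are scored.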

For test [3], the target named is human Vitamin D Receptor (VDR), VDR (gene 7421) (UniProt P11473). Description: ATG_VDR_TRANS: Attagene TRANS-FACTORIAL HepG2 Assay for human Vitamin D Receptor (VDR) (AID 2283022; active = hit-call score of the fitted dose curve at least 0.9, where 1 is the maximum). A digest of the protocol:
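Multiplexed TRANS reporter in HepG2; 24 h treatment; reporter mRNA by RT-PCR plus capillary electrophoresis; upregulation scored relative to DMSO.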

The target of test [4] is human RAR-related Orphan Receptor gamma (RORg), RORC (gene 6097) (UniProt P51449). Put plainly: ATG_RORg_TRANS: Attagene TRANS-FACTORIAL HepG2 Assay for human RAR-related Orphan Receptor gamma (RORg) (AID 2283011; active = hit-call score of the fitted dose curve at least 0.9, where 1 is the maximum). A digest of the protocol:
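Chimeric RORg-Gal4 transactivation in transfected HepG2; 24 h exposure; RT-PCR/capillary electrophoresis readout of reporter mRNA, DMSO baseline.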

In test [5] the target is human Thyroid Receptor alpha (THRa1), THRA (gene 7067) (UniProt P10827). Put plainly: ATG_THRa1_TRANS: Attagene TRANS-FACTORIAL HepG2 Assay for human Thyroid Receptor alpha (THRa1) (AID 2283014; active = hit-call score of the fitted dose curve at least 0.9, where 1 is the maximum). A digest of the protocol: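 Measured here is mRNA from a GAL4-UAS reporter in transfected HepG2 cells carrying a Gal4-fused receptor, 24 h post-dose. DMSO served as negative control and baseline.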

Read-out in test [6]: E-selectin (Homo sapiens) (UniProt P16581)
Description: BSK_3C_Eselectin: BioMAP Diversity Plus: 3C Assay for Eselectin Biomarker Activity (AID 2283015).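 As to outcome: cell surface E-selectin protein quantified by ELISA 24 h after dosing.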 Particulars: actives raise or lower the signal; primary human endothelial cells (HUVEC). The procedure, abridged: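 Endpoint derived by bidirectional fitting against DMSO vehicle; signal is ELISA-detected E-selectin from primary HUVEC at 24 h post-dosing, with parallel SRB staining (0.1% SRB, 560 nm) flagging cytotoxicity.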

Read-out in test [7]: Interleukin-1 alpha (IL1a), IL1A (gene 3552)
Description: BSK_BE3C_IL1a: BioMAP Diversity Plus: BE3C Assay for Interleukin-1 alpha (IL1a) Biomarker Activity (AID 2283016). The note with it: actives raise or lower the signal; primary human bronchial epithelial cells. The procedure, abridged:
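Measured in human lung primary bronchial epithelial cells: IL-1a by ELISA at 24 h after dosing, with bidirectional fitting against DMSO.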

Read-out in test [8]: Monocyte Chemoattractant Protein-1 (MCP1), CCL2 (gene 6347)
Description: BSK_3C_MCP1: BioMAP Diversity Plus: 3C Assay for Monocyte Chemoattractant Protein-1 (MCP1) Biomarker Activity (AID 2283017). Particulars: actives raise or lower the signal; primary human endothelial cells (HUVEC). A digest of the protocol: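 Using human vascular primary endothelium, researchers measured MCP-1 by ELISA 24 h after treatment, with DMSO serving as negative control for bidirectional fitting.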

Read-out in test [9]: Monocyte Chemoattractant Protein-1 (MCP1), CCL2 (gene 6347)
Description: BSK_4H_MCP1: BioMAP Diversity Plus: 4H Assay for Monocyte Chemoattractant Protein-1 (MCP1) Biomarker Activity (AID 2283018). Particulars: actives raise or lower the signal; primary human endothelial cells (HUVEC). A digest of the protocol:
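Primary human umbilical vein endothelium is exposed to chemical for 24 h before MCP-1 is assayed by ELISA. Concentration-response fitted bidirectionally relative to DMSO.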

Read-out in test [10]: Human Leukocyte Antigen - DR isotype (HLADR), HLA-DRA (gene 3122)
Description: BSK_3C_HLADR: BioMAP Diversity Plus: 3C Assay for Human Leukocyte Antigen - DR isotype (HLADR) Biomarker Activity (AID 2283019).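 As to outcome: ELISA of cell-surface HLA-DR on HUVEC 24 h after dosing.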 The note with it: actives raise or lower the signal; primary human endothelial cells (HUVEC). The procedure, abridged:
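Compound added to primary HUVEC cultures, 24 h incubation, then HLA-DR determined by ELISA; endpoint derived by bidirectional fitting relative to DMSO negative control.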

Read-out in test [11]: Interleukin-8 (IL8), CXCL8 (gene 3576)
Put plainly: BSK_3C_IL8: BioMAP Diversity Plus: 3C Assay for Interleukin-8 (IL8) Biomarker Activity (AID 2283020). Particulars: actives raise or lower the signal; primary human endothelial cells (HUVEC). The procedure, abridged:
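Using DMSO-treated wells as the baseline, bidirectional curve fitting was applied to ELISA-measured IL-8 from human umbilical vein endothelial cultures sampled 24 h after compound addition.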

Read-out in test [12]: Monokine induced gamma interferon (MIG), CXCL9 (gene 4283)
Put plainly: BSK_3C_MIG: BioMAP Diversity Plus: 3C Assay for Monokine induced gamma interferon (MIG) Biomarker Activity (AID 2283021). The note with it: actives raise or lower the signal; primary human endothelial cells (HUVEC). The procedure, abridged:
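ELISA-measured MIG in dosed HUVEC 3C cultures at 24 h, analysed by bidirectional fitting with DMSO defining baseline activity.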

Test [13] can be described thus: BSK_3C_SRB: Viability Assessment in the BioMAP Diversity Plus: 3C Assay (AID 2283023).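 Also: fitted both ways against DMSO so a hit may be signal rise or drop.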 Particulars: primary human endothelial cells (HUVEC). A digest of the protocol: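 Overt cytotoxicity is gauged in parallel confluent HUVEC cultures by SRB total-protein staining at the time of biomarker measurement, 24 h after dosing. Gain or loss of signal is fitted versus DMSO.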

Read-out in test [14]: Matrix Metallopeptidase 1 (MMP1), MMP1 (gene 4312)
Put plainly: BSK_BE3C_MMP1: BioMAP Diversity Plus: BE3C Assay for Matrix Metallopeptidase 1 (MMP1) Biomarker Activity (AID 2283024). The note with it: actives raise or lower the signal; primary human bronchial epithelial cells. The procedure, abridged: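 In this multiplexed primary-cell system, human bronchial epithelium received chemicals for 24 h before an ELISA for MMP1. Values reflect bidirectional fits normalised to the DMSO baseline.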

A short description of test [15]: BSK_3C_Vis: BioMAP Diversity Plus: 3C Assay for Morphology Visualization (AID 2283025).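 Also: fitted both ways so gain or loss versus DMSO counts.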 Particulars: primary human endothelial cells (HUVEC). A digest of the protocol: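 Light-microscopy morphology readout, 24 h exposure, human primary umbilical vein endothelium; analysed relative to DMSO with bidirectional fitting.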
Read-out in test [16]: Pselectin, SELP (gene 6403)
Put plainly: BSK_4H_Pselectin: BioMAP Diversity Plus: 4H Assay for Pselectin Biomarker Activity (AID 2283026). Particulars: actives raise or lower the signal; primary human endothelial cells (HUVEC). The procedure, abridged:
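Bidirectional fits against DMSO gave the endpoint. Cells: primary human umbilical vein endothelium, chemical-treated for 24 h before ELISA detection of P-selectin.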

Test [17] can be described thus: BSK_4H_SRB: Viability Assessment in the BioMAP Diversity Plus: 4H Assay (AID 2283027).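 Also: cells exposed to compound for 24 h before staining.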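 As to AC50: curves fitted both ways versus DMSO so AC50 may be loss or gain.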 The note with it: primary human endothelial cells (HUVEC). A digest of the protocol: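 Cytotoxicity read-out in primary human endothelial cells: after 24 h compound exposure, cells were TCA-fixed (10%), stained with 0.1% SRB and absorbance taken at 560 nm. Values fitted in both directions relative to DMSO.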

Test [18] in a line: BSK_BE3C_SRB: Viability Assessment in the BioMAP Diversity Plus: BE3C Assay (AID 2283028). The note with it: primary human bronchial epithelial cells. A digest of the protocol: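 SRB total-protein staining (0.1%, after TCA fixation) of chemically dosed human bronchial epithelial primary cells at 24 h; DMSO serves as the negative control for bidirectional curve fitting.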
Read-out in test [19]: Thrombomodulin, THBD (gene 7056)
Description: BSK_3C_Thrombomodulin: BioMAP Diversity Plus: 3C Assay for Thrombomodulin Biomarker Activity (AID 2283029). Particulars: actives raise or lower the signal; primary human endothelial cells (HUVEC). The procedure, abridged: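 In a multiplexed primary-cell system, human umbilical vein endothelium received chemical and was assayed 24 h later for thrombomodulin by ELISA. Parallel cultures were SRB-stained (0.1% SRB after 10% TCA fixation, read at 560 nm) to flag cytotoxicity.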

Read-out in test [20]: Urokinase-type plasminogen activator receptor (uPAR), PLAUR (gene 5329)
Description: BSK_4H_uPAR: BioMAP Diversity Plus: 4H Assay for Urokinase-type plasminogen activator receptor (uPAR) Biomarker Activity (AID 2283030). Particulars: actives raise or lower the signal; primary human endothelial cells (HUVEC). A digest of the protocol: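 Endpoint derived via bidirectional curve fitting against DMSO baseline; readout was ELISA detection of uPAR on umbilical vein endothelial cells at 24 h post-treatment, with SRB-stained parallel cultures assessing cytotoxicity.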

In the case of `COc1ccc([N+](=O)[O-])cc1[N+](=O)[O-]`, the outcome in test [1], in test [2] and in test [3] was inactive.

Take `COP(C)(=O)OC`: the compound was classed as inactive in [4], in test [2] and in test [3].

With `N#CBr`, the compound was classed as inactive in test [1], in [5] and in test [3].

In the case of `Cc1ccc([N+](=O)[O-])cc1[N+](=O)[O-]`, the outcome in test [1], in test [5], in test [6], in test [7], in [8] and in [9] was inactive. Moreover, the result in test [10], in test [11], in test [12], in [3], in [13] and in test [14] was inactive. The outcome in [15], in test [16], in [17], in test [18], in test [19] and in test [20] was inactive.

As for `O=[N+]([O-])OCC(CO[N+](=O)[O-])(CO[N+](=O)[O-])CO[N+](=O)[O-]`, the outcome in test [1], in test [2] and in test [3] was inactive.

Consider `Cc1ccc([N+](=O)[O-])c([N+](=O)[O-])c1`, for which the result in test [1], in test [2], in [7], in [8], in [9] and in [11] was inactive. Also, the result in test [12], in test [13], in test [14], in [15], in test [16] and in test [17] was inactive. Also, the outcome in test [18] and in test [20] was inactive. Moreover, the results for the half-maximal activity concentration (AC50) in test [6], in test [10] and in [19] were active: 8.47 µM, active: 20 µM and active: 0.05 µM, respectively.

With `O=[N+]([O-])c1cccc([N+](=O)[O-])c1`, the result in [5], in test [6], in [7], in [8], in test [9] and in test [10] was inactive. Moreover, the result in test [11], in [12], in test [3], in [13], in test [14] and in test [15] was inactive. Besides, the outcome in test [16], in [17], in [18], in [19] and in test [20] was inactive.

Consider `CC(C)N(CCO)C(C)C`, for which the call in test [4] and in [2] was inactive.

For `Cc1cccc([N+](=O)[O-])c1[N+](=O)[O-]`, the compound was called inactive in [1], in test [2], in test [5], in [6], in test [7] and in test [8]. Moreover, the outcome in [9], in [11], in test [12], in [3], in test [13] and in test [14] was inactive. The outcome in test [15], in [16], in test [17], in test [18], in test [19] and in [20] was inactive.

For `Cc1c([N+](=O)[O-])cccc1[N+](=O)[O-]`, the outcome in test [6], in test [7], in test [8], in [9], in test [10] and in [11] was inactive. Also, the outcome in [12], in [13], in test [14], in [15], in test [16] and in [17] was inactive. Besides, the result in test [18], in test [19] and in test [20] was inactive.

Turning to `CN(C)CCCl`, the result in [4], in [1], in test [5] and in test [3] was inactive.

In the case of `CC(C)OP(C)(=O)OC(C)C`, the compound was called inactive in test [4], in test [2], in test [6], in [7], in test [9] and in test [10]. Also, the result in test [11], in [12], in [13], in test [14], in test [15] and in test [16] was inactive. Besides, the result in test [18], in test [19] and in test [20] was inactive. Further, the AC50 in test [8] and in test [17] was active: 20 µM in each case.

Values taken from PubChem BioAssay (EPA / NIEHS).
